{"sequences": {"note": "The chains behind the UniProt entries cited, without tags or fusion partners.", "UniProt P10275, whole entry T878A": "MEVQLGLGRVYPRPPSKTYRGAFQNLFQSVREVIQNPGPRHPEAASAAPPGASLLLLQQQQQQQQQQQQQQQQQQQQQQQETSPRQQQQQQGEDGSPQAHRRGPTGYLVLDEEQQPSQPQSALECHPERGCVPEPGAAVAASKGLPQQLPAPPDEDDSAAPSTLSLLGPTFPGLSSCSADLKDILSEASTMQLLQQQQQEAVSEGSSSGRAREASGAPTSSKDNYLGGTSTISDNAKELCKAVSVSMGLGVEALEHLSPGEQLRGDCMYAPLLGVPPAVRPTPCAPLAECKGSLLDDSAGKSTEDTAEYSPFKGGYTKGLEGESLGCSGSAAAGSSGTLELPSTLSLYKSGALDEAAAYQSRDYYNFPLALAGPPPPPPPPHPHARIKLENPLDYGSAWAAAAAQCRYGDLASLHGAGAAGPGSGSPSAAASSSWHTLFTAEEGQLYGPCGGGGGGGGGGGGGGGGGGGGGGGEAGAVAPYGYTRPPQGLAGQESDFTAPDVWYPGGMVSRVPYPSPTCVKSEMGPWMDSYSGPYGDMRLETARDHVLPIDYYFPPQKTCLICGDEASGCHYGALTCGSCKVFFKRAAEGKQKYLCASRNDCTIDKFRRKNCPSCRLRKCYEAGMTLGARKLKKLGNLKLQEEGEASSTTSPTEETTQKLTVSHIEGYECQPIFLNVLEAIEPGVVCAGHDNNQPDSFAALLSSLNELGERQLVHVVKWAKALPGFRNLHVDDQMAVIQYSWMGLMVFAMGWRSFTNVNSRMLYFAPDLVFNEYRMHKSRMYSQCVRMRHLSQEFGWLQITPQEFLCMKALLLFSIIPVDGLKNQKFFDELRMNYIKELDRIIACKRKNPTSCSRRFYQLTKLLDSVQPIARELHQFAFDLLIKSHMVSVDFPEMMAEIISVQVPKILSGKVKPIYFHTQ"}, "source": "patent US8003649B2", "about": "(AstraZeneca AB, priority 2007, dated 2011)", "molecular_target": "T1, Androgen Receptor (AR) (Homo sapiens, UniProt P10275, T878A)", "T1 construct": "cell based immuno-fluorescence assay using the LNCaP prostate epithelial cell line; endogenous in cells; host or cells: LNCaP clone FGC (ATCC CRL-1740)", "assay": "LNCaP Androgen Receptor Down-regulation Cell Assay (immunofluorescence end point)", "assay_type": "cell-based", "conditions": "read-out: Androgen Receptor Down-regulation Assay (a) IC50/μM", "protocol": "The ability of compounds to reduce Androgen Receptor (AR) numbers was assessed in a cell based immuno-fluorescence assay using the LNCaP prostate epithelial cell line.\na) LNCaP Androgen Receptor Down-regulation Cell Assay\nA 5 ml volume of Growth Medium was added to each flask (as above except that 5% (v/v) charcoal stripped FBS (HyClone Code no. SH30068.03) was included instead of 10% (v/v) FBS). Cells were syringed at least twice using a sterile 18G×1.5″ (1.2×40 mm) broad gauge needle and cell density was measured using a haemocytometer.\nTest data reported herein was generated using two different compounds preparation and dosing methods. […]\nImmunostaining was performed at room temperature. […] Then 50 μl of PBST was added to each well and plates were covered with a black plate seal and stored at 4° C. before being read. Plates were read within six hours of completing the immunostaining.\nThe Green Fluorescent AR-associated signal in each well was measured using an Acumen Explorer HTS Reader (TTP Labtech Ltd., Cambridge). […] The instrument is a laser-scanning fluorescence microplate cytometer which samples the well at regular intervals and uses threshold algorithms to identify all fluorescent intensities above the solution background without the need to generate and analyse an image. These fluorescent objects can be quantified and provide a measure of the AR levels in cells. […]", "data": [{"smiles": "Fc1ccc(CN2CCN(c3ccc4nnc(C(F)(F)F)n4n3)CC2)cc1", "note": "[Example 45, 6-[4-[(4-fluorophenyl)methyl]piperazin-1-yl]-3-(trifluoromethyl)-[1,2,4]triazolo[4,3-b]pyridazine]", "values": [{"measurement": "DC50", "result": 1.4, "unit": "µM"}]}]}
